Measured affinities in a library of Ab-95 light chain variants

Binding partner: SARS-CoV-2 spike HR2 peptide, sequence PDVDLGDISGINAS.

Parent scFv Ab-95: VH joined to VL by a (GGGGS)3 linker. Changes lie in the light chain CDRs alone.
VH: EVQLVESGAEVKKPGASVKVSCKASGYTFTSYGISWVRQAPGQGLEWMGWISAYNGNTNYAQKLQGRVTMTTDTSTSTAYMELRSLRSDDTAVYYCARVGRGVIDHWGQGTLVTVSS
VL: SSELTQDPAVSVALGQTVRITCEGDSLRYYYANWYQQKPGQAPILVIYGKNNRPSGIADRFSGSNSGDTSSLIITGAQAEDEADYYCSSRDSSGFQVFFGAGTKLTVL

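The starting antibody came from a phage panning campaign against this peptide. Variants in AAYL52 differ from the parent at up to three CDR positions; double and triple changes were sampled at random. The scFvs were displayed on barcoded MATa yeast, the peptide on MATalpha yeast. The frequency of each diploid, read from paired DNA barcodes, reflects how well the two displayed proteins bind. Read counts were normalised to the haploid input and turned into Kd by a linear fit to BCL2-family pairs of known affinity, for each replicate. There are three technical replicates.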

Substitutions are numbered in sequence along the VL above, starting at 1 (not Kabat).
Numbers give log10(Kd / nM), so 0 is 1 nM and 3 is 1 µM. Smaller is tighter.
A pair that was not seen in that replicate is written "n.d."; this usually means weak binding, but a binder can also be missed.
Nonspecific signal, from three strains lacking the peptide, appeared in 28% of pairings of library AAYL52, centred on 3.91 (5% of these signals below 2.90); values are not corrected for it. For each scFv, signals with the empty controls are counted beside the result, with their mean in brackets.

| # | changes | replicates, log10 nM | control signals |
|---|---|---|---|
| 1 | P54Y+S89H+Q96G | n.d. 4.13 3.71 | 1/9 (3.56) |
| 2 | G24T+R53L+G94P | n.d. n.d. n.d. | 3/9 (4.39) |
| 3 | R28P+N52P+R90W | 3.74 n.d. n.d. | 3/9 (4.11) |
| 4 | E23V+Y31E+N52I | 1.38 1.36 0.78 | 2/9 (3.24) |
| 5 | N33Y+N52G+Q96M | n.d. 5.77 3.81 | 6/9 (4.34) |
| 6 | Y30K+A32E+N51C | n.d. n.d. n.d. | 4/9 (4.33) |
| 7 | G24A+S26I+A32N | 2.73 2.31 2.70 | 3/9 (3.86) |
| 8 | E23N+R90Q+S92L | n.d. n.d. n.d. | 2/9 (5.15) |
| 9 | S26C+L27C+R28V | n.d. n.d. 4.19 | 1/9 (3.51) |
| 10 | G24L+Y29A+S93M | 3.88 5.17 n.d. | 2/9 (4.41) |
| 11 | Y29W+G49W | 3.74 3.00 3.19 | 6/9 (3.96) |
| 12 | F95D | 3.02 2.30 2.41 | 2/9 (3.90) |
| 13 | N33M+G49L+P54Y | 4.31 4.74 4.22 | 4/9 (3.15) |
| 14 | E23M+R28K+F98C | 2.99 2.67 2.89 | 2/9 (4.19) |
| 15 | S55W+S89Y+S93Y | 2.27 2.26 n.d. | 1/9 (4.68) |
| 16 | R28T+Y31E+S88K | n.d. n.d. n.d. | 0/9 |
| 17 | S26W+A32V+S93W | 4.00 4.75 4.52 | 5/9 (4.12) |
| 18 | K50T+R53W+R90L | n.d. 3.37 3.91 | 1/9 (4.23) |
| 19 | L27C+R28E+R53N | n.d. n.d. n.d. | 1/9 (3.93) |
| 20 | E23Y+S88Y+S93Q | 2.46 2.62 3.81 | 3/9 (2.65) |
| 21 | E23Y+N33P+S55F | n.d. 4.66 n.d. | 2/9 (4.96) |
| 22 | S55M | 2.28 1.91 1.59 | 5/9 (3.64) |
| 23 | G49M+K50A+F95M | 4.60 4.27 n.d. | 2/9 (4.23) |
| 24 | A32S+R90W+D91Q | 4.53 3.13 2.75 | 3/9 (4.29) |
| 25 | G49W+R53L+F95Y | 3.36 4.00 n.d. | 3/9 (3.74) |
| 26 | D25T+Y29V+S93E | n.d. 5.54 n.d. | 1/9 (3.69) |
| 27 | L27E+K50N+V97S | 4.77 3.54 n.d. | 1/9 (4.87) |
| 28 | G24L+Q96V+V97Q | 3.82 n.d. n.d. | 4/9 (4.00) |
| 29 | S26Q+G49F+S55N | 3.70 3.36 n.d. | 7/9 (3.68) |
| 30 | R28T+Y31M+N33D | 4.04 n.d. 3.51 | 0/9 |
| 31 | G24M+N51K+N52Y | 2.83 5.66 n.d. | 5/9 (4.10) |
| 32 | K50D | 1.44 1.76 1.23 | 3/9 (4.91) |
| 33 | E23P+D25T+S88E | n.d. n.d. 2.51 | 2/9 (3.19) |
| 34 | E23P+N33D+K50S | n.d. n.d. n.d. | 0/9 |
| 35 | S55K+S92A+F98H | 3.02 2.36 2.38 | 4/9 (3.48) |
| 36 | G49Q+D91Q+F98R | 5.05 n.d. n.d. | 2/9 (3.25) |
| 37 | A32M+N33G+R90N | 3.75 3.90 3.41 | 4/9 (4.39) |
| 38 | N51T+R53Y+S88K | n.d. 5.07 4.61 | 1/9 (3.90) |
| 39 | Y29V+Y31W+N52D | 5.82 3.69 3.21 | 6/9 (4.47) |
| 40 | G49H+R53I+F95A | n.d. n.d. n.d. | 3/9 (2.88) |
| 41 | D25W+R28A+R90V | 3.86 3.17 n.d. | 7/9 (3.82) |
| 42 | D25K+G49K+S89L | n.d. 4.51 n.d. | 3/9 (3.38) |
| 43 | K50T+R53Y+S92N | 4.61 n.d. n.d. | 4/9 (3.85) |
| 44 | S26K+Y31V+N33F | n.d. n.d. 3.48 | 1/9 (4.37) |
| 45 | D25F+L27R+Y31S | 3.95 3.04 3.25 | 4/9 (4.02) |
| 46 | N51I+R90M | n.d. n.d. 4.35 | 1/9 (3.62) |
| 47 | R28D+Y29N+R90P | 4.14 3.77 n.d. | 2/9 (3.90) |
| 48 | G24F+Y29T+F98K | 3.89 3.42 3.85 | 3/9 (4.44) |
| 49 | L27E+G49D+S88I | 3.96 4.78 n.d. | 3/9 (3.92) |
| 50 | G49I+S55F+D91Y | 3.85 4.40 n.d. | 5/9 (3.32) |
| 51 | D25W+Y31C+V97I | n.d. n.d. 3.55 | 1/9 (5.41) |
| 52 | R28H+A32L+S92I | n.d. n.d. n.d. | 4/9 (3.65) |

From the list, the first 7 with no signal in any replicate:

changes	replicates, log10 nM	control signals
G24T+R53L+G94P	n.d. n.d. n.d.	3/9 (4.39)
Y30K+A32E+N51C	n.d. n.d. n.d.	4/9 (4.33)
E23N+R90Q+S92L	n.d. n.d. n.d.	2/9 (5.15)
R28T+Y31E+S88K	n.d. n.d. n.d.	0/9
L27C+R28E+R53N	n.d. n.d. n.d.	1/9 (3.93)
E23P+N33D+K50S	n.d. n.d. n.d.	0/9
G49H+R53I+F95A	n.d. n.d. n.d.	3/9 (2.88)

Reference: Engelhart et al. 2022, doi:10.1038/s41597-022-01779-4. File: FLAb, binding data.